# Patent US20250188143A1, “COMBINED GENE AND RADIO THERAPY FOR THE TREATMENT OF CANCER” (FUNDACION PARA LA INVESTIGACION MEDICA APLICADA, priority 2022, published 2025)
# What was measured:
# [1] = tested on: melanoma and renal cancer; conditions: in vivo; cited from earlier work
# B16 cells = experiment: Radiation and IFN signaling on activation of the ISREx4 promoter (luciferase); format: cell-based, murine; conditions: B16 cells transduced with AAV8-ISREx4-LucmiR122T
# Procedure: To this end, B16 cells received 8 Gy or 0 Gy as described above and then were transduced with AAV8-ISREx4-LucmiR122T (1×10^5 viral genomes/cell) and 48 h later 1,000 IU of either IFN-α, IFN-β or IFN-γ were added to the culture and luciferase activity was measured 48 h later as described above.
Molecule,side effects [1],"luciferase activity (B16 cells; 1,000 IU interferon alone (0 Gy))",luciferase activity (B16 cells; interferon together with radiation 8 Gy)
IL-2: cytokine interleukin-2 used in immunotherapies for melanoma and renal cancer,severe side effects are common,,
"IFN-β: exogenously added interferon, 1,000 IU (protein, UniProt P01574 22-187, looked up) Interferon beta: MSYNLLGFLQRSSNFQCQKLLWQLNGRLEYCLKDRMNFDIPEEIKQLQQFQKEDAALTIYEMLQNIFAIFRQDSSSTGWNETIVENLLANVYHQINHLKTVLEEKLEKEDFTRGKLMSSLHLKRYYGRILHYLKAKEYSHCAWTIVRVEILRNFYFINRLTGYLRN",,significantly increased luciferase activity,induced luciferase activity dramatically
